Earlier results on one molecule are cited in patent US20100063116A1 (priority 2006, published 2010).

The conditions of series [1]: immediate release tablets, oral.

Each structure is given as a SMILES string.

In the case of `CCCN[C@H]1CCc2nc(N)sc2C1.Cl.Cl.O` [Pramipexole dihydrochloride, (S)-2-amino-4,5,6,7-tetrahydro-6-(propylamino)benzothiazole dihydrochloride monohydrate], the solubility in dichloromethane entry was “practically insoluble”. The “time to peak concentrations” value in series [1] is “approximately 2 hours”.
